{"source": "ChEMBL document CHEMBL2385064", "about": "“Selective CB2 agonists with anti-pruritic activity: discovery of potent and orally available bicyclic 2-pyridones” (Bioorg Med Chem, 2013)", "species": "Homo sapiens", "test": "Selectivity ratio of Ki for human CB1 receptor to Ki for human CB2 receptor", "data": [{"compound": "COCCn1c2c(cc(C(=O)NCc3ccccc3)c1=O)CCCCCC2", "values": [{"measurement": "Ratio Ki", "value": 221}]}]}
